Experimental data taken from ChEMBL document CHEMBL1154346 (Bioorg Med Chem Lett, 2009).

Tests used:
Nociceptin receptor [1] = biological target: T1, Nociceptin receptor (Homo sapiens, UniProt P41146); test: Displacement of [3H]nociceptin from human NOP receptor expressed in CHO cells
Nociceptin receptor [2] = biological target: T1, Nociceptin receptor; test: Agonist activity at human NOP receptor expressed in CHO cells assessed as inhibition of forskolin-stimulated cAMP production after 2 hrs
Mu-type opioid receptor = Mu-type opioid receptor (Homo sapiens, UniProt P35372); test: Displacement of [3H]diprenorphine from human MOP receptor expressed in CHOK1 cells; conditions: cho-k1

| Compound | Ki (Nociceptin receptor [1]) [nM] | IC50 (Nociceptin receptor [2]) [nM] | Ki (Mu-type opioid receptor) [nM] |
| --- | --- | --- | --- |
| CNC(=O)CN1Cc2ccccc2N(C2CCN(C3CCC4CCCCC4C3)CC2)S1(=O)=O (stereo unspecified) | 5 | 28 | 14 |
| CNC(=O)Cn1c(=O)n(C2CCN(C3CCC(C)(C)CC3)CC2)c2ccccc21 | 5.2 |  | 282 |
| CNC(=O)Cn1c(=O)n(C2CCN(C3CCC4CCCCC4C3)CC2)c2ccccc21 (stereo unspecified) | 3.5 |  | 127 |
| CNC(=O)CN1Cc2ccccc2N(C2CCN(C3CCC(C(C)C)CC3)CC2)S1(=O)=O (stereo unspecified) | 2.9 | 16 | 12 |
| CNC(=O)Cn1c(=O)n(C2CCN(Cc3ccc(C)c4ccccc34)CC2)c2ccccc21 | 2.7 |  | 138 |
| CNC(=O)CN1c2ccccc2N(C2CCN(C3CCCCCC3)CC2)S1(=O)=O | 111 | 339 | 3180 |
| CNC(=O)Cn1c(=O)n(C2CCN(C3CCC(C(C)(C)C)CC3)CC2)c2ccccc21 (stereo unspecified) | 5.5 |  | 77 |
| CNC(=O)Cn1c(=O)n(C2CCN(C3CCCCCC3)CC2)c2ccccc21 | 35 |  | 1790 |
| CNC(=O)Cn1c(=O)n(C2CCN(C3CCCCCCC3)CC2)c2ccccc21 | 15 |  | 608 |
| CNC(=O)Cn1c(=O)n(C2CCN(Cc3cccc4ccccc34)CC2)c2ccccc21 | 29 |  | 67 |
| CNC(=O)Cn1c(=O)n(C2CCN(C3CCC(C)(C)CC3(C)C)CC2)c2ccccc21 (stereo unspecified) | 4.7 |  | 47 |
| CNC(=O)Cn1c(=O)n(C2CCN(C3CCCC3(C)C)CC2)c2ccccc21 (stereo unspecified) | 62 |  | 350 |
| CNC(=O)Cn1c(=O)n(C2CCN(CC3CCCCC3)CC2)c2ccccc21 | 259 |  | 1880 |
| CNC(=O)Cn1c(=O)n(C2CCN(CCC(C)(C)C)CC2)c2ccccc21 | 186 |  | 2710 |
| CNC(=O)CN1c2ccccc2N(C2CCN(C3CCC(C(C)C)CC3)CC2)S1(=O)=O (stereo unspecified) | 6.4 | 21 | 346 |
| CNC(=O)Cn1c(=O)n(C2CCN(C3CCCC4(CCCCC4)C3)CC2)c2ccccc21 (stereo unspecified) | 1.3 |  | 34 |
| CNC(=O)CN1c2ccccc2N(C2CCN(C3CCCCCCCCC3)CC2)S1(=O)=O | 2.5 | 7.5 | 107 |
| CNC(=O)Cn1c(=O)n(C2CCN(Cc3ccc(OC)c4ccccc34)CC2)c2ccccc21 | 18 |  | 120 |
| CNC(=O)CN1c2ccccc2N(C2CCN(C3CCC4CCCCC4C3)CC2)S1(=O)=O (stereo unspecified) | 7.1 | 12 | 268 |
| CNC(=O)CN1Cc2ccccc2N(C2CCN(Cc3ccc(C)c4ccccc34)CC2)C1=O | 22 |  | 19 |
